From PubChem BioAssay AID1117267 (The Scripps Research Institute Molecular Screening Center, 2014)
The list shows a part of the results, in another mix than the full data. Calls of active or inactive are those of the source.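 Rule for the calls: active = activation above the mean of all tested compounds plus 3 SD (cut at about 9.5% in these data); inactive = the rest.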

Assay: compounds raising TTR promoter-driven luciferase – cell-based, luminescence, SH-SY5Y, TTR promoter Gaussia luciferase, primary screen (AID 1117267);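 note: cells exposed to compounds for one day before reading; 0% = median of all test compound wells on the plate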
Details: at 16.7 µM, active compounds read high, 100% = recombinant luciferase protein wells

Q: With `CC(C)c1ccc(OP(=O)(Nc2ccccn2)Oc2ccccc2F)cc1` (centres undefined) as the molecule, how does the activation read?
A: Its activation is inactive: -0.3%.

Q: For `ClCCSc1nnc(-c2cccnc2)o1`, which activation is on record?
A: Its activation is inactive: -0.58%.

Q: For `O=C(OC1CN2CCC1CC2)c1cccc2[nH]cnc12` (centres undefined), which activation is on record?
A: Its activation is inactive: 7.2%.

Q: For `O=[As](O)(c1ccc(O)cc1)c1ccccc1O`, which activation is on record?
A: The activation was inactive: 0.41%.

Q: With `Cc1ccc2nc3c(c(C)c2c1)CC(C(Cl)Cl)S3` (centres undefined) as the molecule, how does the activation read?
A: The activation was inactive: -0.01%.

Q: With `COc1ccc(N/C(=N/P(=O)(N2CCOCC2)N2CCOCC2)N2CCOCC2)cc1` as the molecule, how does the activation read?
A: The activation was inactive: -1.1%.

Q: Which activation does the source give for `O=P1(N(CCCl)CCCl)OCCCN1CCCl` (centres undefined) here?
A: The activation was inactive: 1.46%.

Q: For `O=P1(N(CCCl)CCCl)Nc2ccccc2N1`, which activation is on record?
A: The activation was inactive: -1.74%.

Q: With `CCOC(=O)c1ccc(NC(=O)C(C)(CCl)SC)cc1` (centres undefined) as the molecule, how does the activation read?
A: The activation was inactive: 2.01%.

Q: For `NS(=O)(=O)c1cccc(NC(=O)COC(=O)C(O)(c2ccccc2)c2ccccc2)c1`, which activation is on record?
A: The activation was inactive: 1.28%.

Q: Which activation does the source give for `O=C(/C=C/c1ccccc1)OC1CN2CCC1CC2` (centres undefined) here?
A: Its activation is inactive: 0.14%.

Q: With `CN(C(=O)Cc1ccc(Cl)c(Cl)c1)C1CCCC[C@@H]1N1CCCC1` (some centres undefined) as the molecule, how does the activation read?
A: Its activation is inactive: 0.01%.

Q: With `CC(C)/C=N\N=C(\N)N[N+](=O)[O-]` as the molecule, how does the activation read?
A: Its activation is inactive: 0.13%.

Q: For `CCOP(=O)(Nc1ccc(C)cn1)OCC`, which activation is on record?
A: Its activation is inactive: 0.02%.

Q: With `CCOP(=O)(NC(=NC(C)c1ccccc1)NC(C)c1ccccc1)OCC` (centres undefined) as the molecule, how does the activation read?
A: The activation was inactive: -0.89%.

Q: For `O=P1(Nc2ccccn2)COc2ccccc2OC1`, which activation is on record?
A: The activation was inactive: 2.49%.

Q: Which activation does the source give for `O=[As](O)(O)c1cccnc1` here?
A: The activation was inactive: -0.08%.

Q: Which activation does the source give for `O=C(OC1CN2CCC1CC2)c1ccc(Cl)cc1` (centres undefined) here?
A: Its activation is inactive: 0.83%.

Q: With `Cc1cccc(OCC(=O)OC2CN3CCC2CC3)c1` (centres undefined) as the molecule, how does the activation read?
A: The activation was inactive: 6.01%.

Q: For `CN(C)C(=O)c1cc([N+](=O)[O-])cc2c1-c1c(cc([N+](=O)[O-])cc1[N+](=O)[O-])C2=O`, which activation is on record?
A: Its activation is inactive: -7.47%.

Q: With `O=[N+]([O-])c1ccc2c(c1)nnn2O` as the molecule, how does the activation read?
A: Its activation is inactive: -1.84%.

Q: For `O=P(Nc1nccs1)(Oc1ccccc1)Oc1ccccc1`, which activation is on record?
A: Its activation is inactive: 0.4%.

Q: Which activation does the source give for `O=C(O)COc1ccc([As](=O)(O)O)cc1[N+](=O)[O-]` here?
A: The activation was inactive: 1.5%.

Q: Which activation does the source give for `O=c1c2cc([N+](=O)[O-])ccc2[nH]c2c([N+](=O)[O-])cc([N+](=O)[O-])cc12` here?
A: The activation was inactive: -6.56%.

Q: With `O=P1(N(CCCl)CCCl)OCCC2CCCCN21` (centres undefined) as the molecule, how does the activation read?
A: Its activation is inactive: -1.13%.

Q: Which activation does the source give for `N#C/C(=C\c1ccc(N(CCBr)CCBr)cc1)C(N)=O` here?
A: The activation was inactive: -0.76%.

Q: With `CCc1cc(O)c([N+](=O)[O-])c(C)c1[N+](=O)[O-]` as the molecule, how does the activation read?
A: The activation was inactive: 0.25%.

Q: Which activation does the source give for `CC(=O)NC(SC(=S)N(C)C)C(Cl)(Cl)Cl` (centres undefined) here?
A: Its activation is inactive: -1.45%.

Q: For `C[C@H]1OP(=O)(Oc2ccccc2)[C@H](O)[C@H](O)[C@H]1N=[N+]=[N-]` (some centres undefined), which activation is on record?
A: The activation was inactive: 1.53%.

Q: For `O=[N+]([O-])c1cccc(NC2=NCC(CBr)S2)c1` (centres undefined), which activation is on record?
A: The activation was inactive: -1.83%.

Q: For `O=P1(N(CCCl)CCCl)OCCCS1` (centres undefined), which activation is on record?
A: The activation was inactive: 0.25%.

Q: Which activation does the source give for `CN(C)C(=O)OCCc1n(C)cc[n+]1C` here?
A: The activation was inactive: 1.1%.

Q: For `CC(C)c1nc(Nc2ccccc2)n(P(=O)(N(C)C)N(C)C)n1`, which activation is on record?
A: Its activation is inactive: -0.69%.

Q: For `O=[N+]([O-])c1cccc2n[nH]nc12`, which activation is on record?
A: The activation was inactive: 0.42%.

Q: With `Nc1cc(N)c2nonc2c1[N+](=O)[O-]` as the molecule, how does the activation read?
A: Its activation is inactive: -0.16%.

Q: With `NC(=O)c1cc([N+](=O)[O-])cc([N+](=O)[O-])c1N` as the molecule, how does the activation read?
A: Its activation is inactive: 0.31%.

Q: For `Cc1ccc(OP(=O)(Nc2nccs2)Oc2ccc(C)cc2)cc1`, which activation is on record?
A: The activation was active: 25.2%.

Q: For `CN(C(=O)Cc1ccccc1)C1CC[C@@]2(CCCO2)C[C@@H]1N1CCCC1` (some centres undefined), which activation is on record?
A: The activation was inactive: 1.57%.

Q: For `O=C(O)c1ccccc1[As](=O)(O)O`, which activation is on record?
A: The activation was inactive: 1.39%.

Q: With `CN(C)P(=O)(N(C)C)n1c(Nc2ccccc2)nnc1-c1ccccc1` as the molecule, how does the activation read?
A: The activation was inactive: 1.52%.

Q: For `O=P(Nc1nc2ccc(Cl)cc2s1)(c1ccccc1)c1ccccc1`, which activation is on record?
A: Its activation is inactive: -4.97%.

Q: For `Cc1ccc(NP(=O)(Oc2ccccc2F)Oc2ccccc2F)nc1`, which activation is on record?
A: Its activation is inactive: -0.13%.

Q: Which activation does the source give for `CCOP(=O)(Nc1ccccc1)OCC` here?
A: The activation was active: 13.2%.

Q: With `CCn1c(=O)n(C2CCN(CC3CCCCCCC3)C[C@H]2CO)c2ccccc21` (some centres undefined) as the molecule, how does the activation read?
A: The activation was inactive: -0.01%.
